Tests used:
albumin = albumin (Homo sapiens, UniProt P02768); conditions: read-out: published binding affinity to albumin; cited from earlier work
[1] = MicroPET imaging and biodistribution in U87MG xenografts; conditions: female, athymic nude, mouse, in vivo

Amino acid sequences for entries named in this document (tags omitted). Residues count along the entry.
UniProt P02768, 25-609: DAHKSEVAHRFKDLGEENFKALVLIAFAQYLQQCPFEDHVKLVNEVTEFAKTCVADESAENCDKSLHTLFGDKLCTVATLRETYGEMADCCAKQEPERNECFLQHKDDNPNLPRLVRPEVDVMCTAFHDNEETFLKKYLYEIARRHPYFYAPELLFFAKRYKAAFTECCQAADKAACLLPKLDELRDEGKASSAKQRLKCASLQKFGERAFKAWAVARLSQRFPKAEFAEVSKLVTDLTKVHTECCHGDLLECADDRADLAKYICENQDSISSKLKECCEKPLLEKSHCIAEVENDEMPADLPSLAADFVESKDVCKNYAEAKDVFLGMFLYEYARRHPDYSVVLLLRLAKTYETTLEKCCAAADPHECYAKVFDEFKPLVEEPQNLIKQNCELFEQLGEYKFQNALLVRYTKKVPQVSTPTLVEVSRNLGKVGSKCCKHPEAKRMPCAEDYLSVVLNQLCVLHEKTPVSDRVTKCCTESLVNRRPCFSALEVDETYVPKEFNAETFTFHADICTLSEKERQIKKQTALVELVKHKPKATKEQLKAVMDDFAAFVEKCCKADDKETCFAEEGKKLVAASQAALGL

| Structure (SMILES) | Kd (albumin) [µM] | tissue uptake ([1]; tumor accumulation, U87MG xenografts, all time points) [%ID/g] | tissue uptake at 24 h ([1]; uptake in the blood, 24 h p.i.) [%ID/g] | tissue uptake ([1]; uptake in the blood, up to 4 h p.i.) [%ID/g] |
| --- | --- | --- | --- | --- |
| Cc1cc(-c2ccc(/N=N/c3ccc4c(S(=O)(=O)O)cc(S(=O)(=O)O)c(N)c4c3O)c(C)c2)ccc1/N=N/c1ccc2c(S(=O)(=O)O)cc(S(=O)(=O)O)c(N)c2c1O [Evans Blue] | ~2.5 | – | – | – |
| Cc1cc(-c2ccc(NC(=O)[C@@H](CCCCNC(=O)CCN3C(=O)CC(SCC(=O)NCCCC[C@H]4NC(=O)[C@H](Cc5ccc(O)cc5)NC(=O)[C@H](CC(=O)O)NC(=O)C(C)NC(=O)[C@H](CCCNC(=N)N)NC4=O)C3=O)NC(=O)CN3CCN(CC(=O)O)CCN(CC(=O)O)CC3)c(C)c2)ccc1/N=N/c1ccc2c(S(=O)(=O)O)cc(S(=O)(=O)O)c(N)c2c1O (stereo partly shown) [64Cu-NMEB-RAD, metal not drawn, reference compound] | – | ~6 | 3.7 ± 0.3 | 10 to 12 |
